According to patent publication US11447533B2, “Antimicrobial and anticancer peptides and conjugates and compositions, methods, articles and kits relating thereto” (George Mason Research Foundation, Inc., priority 2018, dated 2022):

How the values were obtained:
E. coli ATCC 25922 = assay: Antimicrobial efficacy (resazurin virtual colony count); format: cell-based, Escherichia coli; details: DPBS + 4% (w/v) bovine serum albumin versus DPBS
Experimental: Antimicrobial Studies. The phosphate buffers used for antimicrobial assays were supplemented with non-nitrogenous energy source, 0.1% (w/v) glucose. To conduct antimicrobial assays, bacterial strains were first suspended in respective buffers. E. coli (ATCC 25922) and B. cereus (ATCC 11778) were grown in MHB II up to OD600 nm˜1 and stored as frozen stock in 20% glycerol at −80° C. Occasionally they were thawed and enumerated by serial dilution and spreading on MHB II agar plates. The concentrations of the frozen stocks of E. coli and B. cereus strains were 1.0-1.1*10^8 CFU/mL with OD600 nm˜0.8. […]
(§1) Antimicrobial assays in different phosphate buffers and serum were conducted by adapting, with necessary modifications a fast high-throughput method based on Virtual Colony Count technique and later modified by incorporating the use of resazurin. At first serial dilution of a microbial strain in respective buffer was poured in the wells of 96 well polypropylene microplate and was then added with same volume of 2× MHB II supplemented with 80 μg/mL resazurin and incubated at 35° C. in a Gemini EM Microplate Reader (Molecular Devices) overnight with intermittent shaking. As the microbe grows it reduces non-fluorescent resazurin to fluorescent resorufin and the fluorescent intensity of each well were measured (excitation=570 nm, emission=590 nm) each 5 min for 15 hours. […]

[1] = test system: Klebsiella pneumoniae (ATCC BAA-1705); assay: Antimicrobial efficacy against ESKAPE pathogens; format: cell-based; details: mammalian serum
Experimental: (§2) Antimicrobial Studies. The phosphate buffers used for antimicrobial assays were supplemented with non-nitrogenous energy source, 0.1% (w/v) glucose. To conduct antimicrobial assays, bacterial strains were first suspended in respective buffers. E. coli (ATCC 25922) and B. cereus (ATCC 11778) were grown in MHB II up to OD600 nm˜1 and stored as frozen stock in 20% glycerol at −80° C. Occasionally they were thawed and enumerated by serial dilution and spreading on MHB II agar plates. The concentrations of the frozen stocks of E. coli and B. cereus strains were 1.0-1.1*10^8 CFU/mL with OD600 nm˜0.8. In case of other bacterial strains, they were grown on the days of experiment up to OD600 nm˜1-1.5 and then adjusted to OD600 nm˜0.8. The growth media of the drug-resistant bacterial strains were supplemented with few of the respective antibiotics against which they are resistant. 200 μL of the 0.8 OD600 nm culture were added to 10 mL of the respective buffer to obtain a suspension which was used to incubate with equal volumes of peptide solution in the same buffer.
as §1, with “hours. The time (t, min) to reach a certain fluorescence (RFU=20000 with respect to the starting fluorescence) was correlated with the initial bacterial concentration (in CFU/mL) in the particular well to obtain a calibration plot of the form: Log([Bacteria],CFU/mL)=b+m*t Equation 4:” for “hours.”
(§3) To obtain antimicrobial efficacy of the peptides, 50 μL of serially diluted peptide in a buffer was incubated with 50 μL microbial suspension in the same buffer for 3 hours in black polypropylene 96 well plate. After incubation the wells were added with 100 μL of 2× MHB II supplemented with 80 μg/mL resazurin and then incubated with continuous fluorescence reading for overnight time period as described earlier. […]
(§4) ATRA1-R3W2-HYD, NA-CATH and PMB were evaluated for their effectiveness in mammalian serum conditions against pathogenic bacteria of both normal and drug-resistant strains. […]

Pseudomonas aeruginosa = assay: Antimicrobial efficacy against ESKAPE pathogens; format: cell-based
Experimental: as §2
as §1, with “hours. The time (t, min) to reach a certain fluorescence (RFU=20000 with respect to the starting fluorescence) was correlated with the initial bacterial concentration (in CFU/mL) in the particular well to obtain a calibration plot of the form: Log([Bacteria],CFU/mL)=b+m*t Equation 4:” for “hours.”
as §3, §4

[2] = test system: multi-drug resistant (MDR) Acinetobacter baumannii (ATCC BAA-1795); assay: Antimicrobial efficacy against ESKAPE pathogens; format: cell-based; details: mammalian serum
Experimental: as §2
as §1, with “hours. The time (t, min) to reach a certain fluorescence (RFU=20000 with respect to the starting fluorescence) was correlated with the initial bacterial concentration (in CFU/mL) in the particular well to obtain a calibration plot of the form: Log([Bacteria],CFU/mL)=b+m*t Equation 4:” for “hours.”
as §3, §4

[3] = Cytotoxicity (Alamar blue); format: cell-based; details: human, primary lung epithelium cells; ~16 hours (overnight), reduced serum conditions; read-out: concentration decreasing resazurin reduction by 50% (LD50)
Experimental: FIGS. 11A-11B are graphs showing cytotoxicity against primary lung epithelium cells in serum-free condition. Cells were seeded in complete growth medium (Minimal essential medium supplemented with 10% fetal bovine serum) at near-confluence into a 96-well plate and allowed to settle for 24-hours. Media was then replaced to OptiMEM I reduced serum medium containing peptide or vehicle alone (DBPS) and cells were incubated overnight (16 hours). A resazurin based dye (Alamar blue) was added directly to media and conversion of resazurin to resorufin was evaluated following two hours. % Survival represents the proportion of viable cells in peptide treated cells relative to cells treated with vehicle alone. […] Each peptide was tested in triplicate.
FIG. 12 is a graph showing comparison of toxicities against Lung Primary Epithelial cells and Lung Cancerous Epithelial Cells, derived from H358 cell-line. […] Each peptide was tested in triplicate.
Cytotoxicity. Cells were seeded in complete growth medium (Minimal Essential Medium, MEMα, supplemented with 10% Fetal Bovine Serum) into a culture-treated 96-well plate at a density of 25000 cells per well. After 24 hours, culture media was aspirated and replaced with media containing the selected peptide. […] A ratio of reduction in treated versus untreated cells was calculated in order to determine overall cell viability. […]

[4] = test system: H-358 lung epithelial cancer cells; assay: Cytotoxicity (Alamar blue); format: cell-based, human; details: ~6 hours, 10% fetal bovine serum
Experimental: FIG. 12 is a graph showing comparison of toxicities against Lung Primary Epithelial cells and Lung Cancerous Epithelial Cells, derived from H358 cell-line. Non-linear regression analysis of six-hour cytotoxicity data was performed to identify the concentration to achieve 50% lethality (LD50) for each toxic peptide. Each peptide was tested in triplicate.
Cytotoxicity. Cells were seeded in complete growth medium (Minimal Essential Medium, MEMα, supplemented with 10% Fetal Bovine Serum) into a culture-treated 96-well plate at a density of 25000 cells per well. After 24 hours, culture media was aspirated and replaced with media containing the selected peptide. No-serum experiments were conducted in Opti-MEM I reduced serum media (ThermoFisher, 31985062) and 10% serum experiments were performed in complete growth medium. In all cases, DBPS was used as a vehicle only control and buffer to serially dilute the peptides. After exposure to the peptides or vehicle-alone for the defined period, Alamar blue dye (resazurin) was added directly to the media and allowed to incubate for two hours. Following incubation, A570/A600 measurements were made to calculate reduction of resazurin dye to resorufin. A ratio of reduction in treated versus untreated cells was calculated in order to determine overall cell viability. The human cells were always maintained in a 37° C. incubator under 5% CO2. […]

CC[C@H](C)[C@H](NC(=O)[C@@H](NC(=O)[C@H](CCCCN)NC(=O)[C@@H]1CCCN1C(=O)[C@H](CCCCN)NC(=O)[C@H](CCCCN)NC(=O)[C@H](Cc1ccccc1)NC(=O)[C@H](Cc1ccccc1)NC(=O)[C@H](CCCCN)NC(=O)[C@H](CCCCN)NC(=O)[C@H](C)NC(=O)[C@H](CCCNC(=N)N)NC(=O)[C@H](CCCCN)NC(=O)[C@H](CCCCN)NC(=O)[C@@H](NC(=O)[C@H](CO)NC(=O)[C@H](CC(N)=O)NC(=O)[C@H](CCCCN)NC(=O)[C@H](CC(C)C)NC(=O)[C@H](CCCCN)NC(=O)[C@H](CCCCN)NC(=O)[C@H](Cc1ccccc1)NC(=O)[C@H](Cc1ccccc1)NC(=O)[C@H](CCCCN)NC(=O)[C@H](CCCCN)NC(=O)[C@H](Cc1ccccc1)NC(=O)[C@H](CCCNC(=N)N)NC(=O)[C@@H](N)CCCCN)C(C)C)C(C)C)C(=O)NCC(=O)N[C@H](C(=O)N[C@H](C(=O)N[C@@H](Cc1ccccc1)C(=O)N1CCC[C@H]1C(=O)N[C@@H](Cc1ccccc1)C(=O)O)[C@@H](C)O)C(C)C [NA-CATH, reference compound]
increase of EC50 in presence of albumin relative to EC50 in DPBS (E. coli ATCC 25922): did not demonstrate significant changes in EC50 values
antimicrobial effectiveness, in words [1]: effective in mammalian serum
antimicrobial effectiveness, in words (Pseudomonas aeruginosa; DPBS): good bactericidal properties
antimicrobial effectiveness, in words (Pseudomonas aeruginosa; mammalian serum): did not demonstrate antimicrobial effectiveness
antimicrobial effectiveness, in words [2]: effective in mammalian serum
CC50 at 16 h [3]: ~25 µM
LD50 [4]: ~10.5 µM
